Reference: PMC2901986 (Nature, 2010)

The chains behind the UniProt entries cited, without tags or fusion partners. Residues count along the entry.
UniProt P00519, 46-515: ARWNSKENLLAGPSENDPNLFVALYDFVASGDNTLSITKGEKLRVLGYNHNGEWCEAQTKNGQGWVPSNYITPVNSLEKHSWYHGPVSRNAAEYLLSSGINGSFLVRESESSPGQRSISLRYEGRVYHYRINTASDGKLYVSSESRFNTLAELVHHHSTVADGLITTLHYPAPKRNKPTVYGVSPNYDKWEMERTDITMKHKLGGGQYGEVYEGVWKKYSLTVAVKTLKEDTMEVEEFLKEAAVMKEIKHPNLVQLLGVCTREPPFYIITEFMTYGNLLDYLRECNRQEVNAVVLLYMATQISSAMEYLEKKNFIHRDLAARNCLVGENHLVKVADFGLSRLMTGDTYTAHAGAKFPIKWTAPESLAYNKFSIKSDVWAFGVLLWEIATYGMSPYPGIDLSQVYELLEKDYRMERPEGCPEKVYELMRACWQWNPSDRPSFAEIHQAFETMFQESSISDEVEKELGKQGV
UniProt P00519, 46-515 E505K: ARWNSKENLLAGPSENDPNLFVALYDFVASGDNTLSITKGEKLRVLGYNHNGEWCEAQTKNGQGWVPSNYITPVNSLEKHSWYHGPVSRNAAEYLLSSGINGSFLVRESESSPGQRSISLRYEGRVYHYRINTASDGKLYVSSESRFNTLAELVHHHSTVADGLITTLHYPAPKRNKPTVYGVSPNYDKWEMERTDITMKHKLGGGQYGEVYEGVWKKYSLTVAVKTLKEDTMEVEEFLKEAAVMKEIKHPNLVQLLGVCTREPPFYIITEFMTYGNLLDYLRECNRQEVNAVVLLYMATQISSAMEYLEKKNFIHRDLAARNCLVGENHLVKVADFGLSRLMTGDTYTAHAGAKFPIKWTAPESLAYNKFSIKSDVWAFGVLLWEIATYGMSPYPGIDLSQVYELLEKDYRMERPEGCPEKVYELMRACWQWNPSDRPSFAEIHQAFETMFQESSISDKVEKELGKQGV

How the values were obtained:
[1] = target: wild-type Abl kinase (Homo sapiens, UniProt P00519)
[2] = target: E505K Abl kinase (Homo sapiens, UniProt P00519, E505K); experiment: ATP/NADH-coupled Abl kinase assay, E505K; type: biochemical; conditions: read-out: IC50, E505K Abl; ATP concentration of 20 µM

Q: What does the source list for O=C(NCCO)c1cccc(-c2cc(Nc3ccc(OC(F)(F)F)cc3)ncn2)c1 [GNF-5]?
A: IC50 ([1]; read-out: IC50, wild-type Abl, ATP concentration of 20 µM): 220 ± 10 nM; EC50 ([1]; read-out: estimated EC50, Fig. S9d): 169 nM; IC50 [2]: > 10 µM
